By IC50 is commonly meant the concentration needed to halve the response being measured.

Amino acid sequences for entries named in this document (tags omitted).
UniProt Q16539, whole entry: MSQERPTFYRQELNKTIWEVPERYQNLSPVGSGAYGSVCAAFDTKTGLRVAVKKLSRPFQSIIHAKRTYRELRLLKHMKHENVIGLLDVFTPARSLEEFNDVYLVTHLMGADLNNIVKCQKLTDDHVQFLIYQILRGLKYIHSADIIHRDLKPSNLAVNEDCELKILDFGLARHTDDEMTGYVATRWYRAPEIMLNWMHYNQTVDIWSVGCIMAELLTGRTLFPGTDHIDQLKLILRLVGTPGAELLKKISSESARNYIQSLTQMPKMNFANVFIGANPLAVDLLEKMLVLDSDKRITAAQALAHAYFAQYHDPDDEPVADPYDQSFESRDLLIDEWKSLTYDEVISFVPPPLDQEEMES

One assay has as its target T1, phospho p-38 alpha kinase (Homo sapiens, UniProt Q16539).
T1 construct: purchased Panvera
The assay is described as follows: P-38 alpha kinase assay (spectrophotometric, pyruvate kinase/lactate dehydrogenase coupled). Type of assay: biochemical. Particulars: Table 2; rates from […] to 2 h time frame. As to the method:
In this assay, the oxidation of NADH was continuously measured spectrophometrically. […] The reaction was initiated by adding ATP. The absorption at 340 nm was monitored continuously for up to 4 hours at 30° C. on Polarstar Optima plate reader (BMG). The kinase activity (reaction rate) was calculated from the slope at the time frame from 1.5 h to 2 h.
For inhibition determinations, test compounds were incubated with the reaction mixture for ˜5 min before adding ATP to start the reaction. […] IC50 values were calculated from a series of % inhibition values determined at a range of concentrations of each inhibitor using Prism to process the data and fit inhibition curves. Generally, the rates obtained at the time frame of 1.5 h to 2 h were used for these calculations.
As for `COc1ccc(-n2nc(C(C)(C)C)cc2NC(=O)Nc2ccc(Br)cc2)cc1` [Example 52, 1-{3-tert-butyl-1-(4-methoxyphenyl)-1H-pyrazol-5-yl}-3-(4-bromophenyl)urea], 416 nM corresponded to half-maximal inhibition (IC50).

`COc1cccc(-n2nc(C(C)(C)C)cc2NC(=O)Nc2cccc3ccccc23)c1` [Example 39, 1-[3-tert-butyl-1-(3-methoxyphenyl)-1H-pyrazol-5-yl]-3-(naphthalen-1-yl)urea] registered an IC50 of 12 nM.

The molecule `COc1cccc(-n2nc(C(C)(C)C)cc2NC(=O)Nc2ccc(Cl)cc2)c1` [Example 40, 1-[3-tert-butyl-1-(3-methoxyphenyl)-1H-pyrazol-5-yl]-3-(4-chlorophenyl)urea] returned an IC50 of 55 nM.

For `COC(=O)c1ccc(-n2nc(C(C)(C)C)cc2NC(=O)Nc2ccc(OC)c3ccccc23)cc1` [Example 58, methyl 4-{3-tert-butyl-5-[3-(1-methoxynaphthalen-4-yl)ureido]-1H-pyrazol-1-yl}benzoate], the midpoint of inhibition, the IC50, lay at 172 nM.

In the case of `COC(=O)c1ccc(-n2nc(C(C)(C)C)cc2NC(=O)Nc2ccc(Br)cc2)cc1` [Example 59, methyl 4-{3-tert-butyl-5-[3-(4-bromophenyl)ureido]-1H-pyrazol-1-yl}benzoate], the 50% inhibitory concentration (IC50) turned out to be 709 nM. This IC50 is about 4.1-fold higher than that of the molecule before.

The molecule `CC(C)(C)c1cc(NC(=O)Nc2cccc3ccccc23)n(-c2cccc(OS(=O)(=O)NC(=O)N3CCCC3)c2)n1` [Example 49, (pyrrolidine-1-carbonyl)sulfamic acid 3-[3-tert-butyl-5-(3-naphthalen-1-yl-ureido)-pyrazol-1-yl]phenyl ester] showed a concentration for half-maximal inhibition (IC50) of 71 nM. Against the preceding molecule, the IC50 is about 10-fold lower.

Regarding `CC(C)(C)c1cc(NC(=O)Nc2ccc(Br)cc2)n(-c2ccc(CO)cc2)n1` [Example 60], the IC50 came to 264 nM.

`COc1ccc(-n2nc(C(C)(C)C)cc2NC(=O)Nc2ccc(OC)c3ccccc23)cc1` [Example 51]: the IC50 was determined as 33 nM.

The molecule `CC(C)(C)c1cc(NC(=O)Nc2ccc(Br)cc2)n(-c2ccc(O)cc2)n1` [Example 55, 1-{3-tert-butyl-1-(4-hydroxyphenyl)-1H-pyrazol-5-yl}-3-(4-bromophenyl)urea] displayed an IC50 of 740 nM. This IC50 is about 22-fold higher than that of the molecule before.

The assay is the same for the next values; noted with them: Table 3; rates from […] to 2 h time frame.
`CC(Cc1cccc(-n2nc(C(C)(C)C)cc2NC(=O)Nc2ccc(Cl)cc2)c1)C(=O)O` (racemic) [Example 203, 3-(3-{3-t-butyl-5-[3-(4-chloro-phenyl)-ureido]-pyrazol-1-yl}-phenyl)-2-methyl-propionic acid] came in with a 50% inhibitory concentration (IC50) of 328 nM. This lies in the sub-micromolar range.

Regarding `CC(C)(C)c1cc(NC(=O)Nc2cccc3ccccc23)n(-c2cccc(C(C)(C)O)c2)n1` [Example 196, 1-{5-t-butyl-2-[3-(1-hydroxy-1-methyl-ethyl)-phenyl]-2H-pyrazol-3-yl)-3-naphthalen-1-yl-urea], the IC50 turned out to be 28 nM.

`CC(C)(C)c1cc(NC(=O)Nc2cccc3ccccc23)n(-c2cccc(C(=O)O)c2)n1` [Example 285, 3-(3-t-butyl-5-(3-(naphthalen-1-yl)ureido)-1H-pyrazol-1-yl)benzoic acid] came in with an IC50 of 102 nM.

The molecule `CC(C)(C)c1cc(NC(=O)Nc2ccc(Cl)cc2)n(-c2cccc(C(C)(C)O)c2)n1` [Example 197, 1-{5-t-butyl-2-[3-(1-hydroxy-1-methyl-ethyl)-phenyl]-2H-pyrazol-3-yl}-3-(4-chloro-phenyl)-urea] showed an IC50 of 243 nM.

Molecule `CC(C)(C)c1cc(NC(=O)Nc2ccc(Cl)cc2)n(-c2cccc(CCN3CCOCC3)c2)n1` [Example 301, 1-{3-tert-butyl-1-[3-(2-morpholinoethyl)phenyl]-1H-pyrazol-5-yl}-3-(4-chlorophenyl)urea] displayed an IC50 of 630 nM.

The molecule `CC(C)(C)c1cc(NC(=O)Nc2ccc(F)cc2)n(-c2cccc(CN3CC(=O)NS3(=O)=O)c2)n1` [Example 162, 1-{5-t-butyl-2-[3-(3-(R)-methyl-1,1,4-trioxo-1λ^6-[1,2,5]thiadiazolidin-2-ylmethyl)-phenyl]-2H-pyrazol-3-yl}-3-naphthalen-1-yl-urea] showed an IC50 of 650 nM. This IC50 and that of the molecule before are within 1.5-fold of each other.

With `CC(C)(C)c1cc(NC(=O)Nc2ccc(Cl)cc2)n(-c2cccc(C(=O)O)c2)n1` [Example 284, 3-(3-t-butyl-5-(3-(4-chlorophenyl)ureido)-1H-pyrazol-1-yl)benzoic acid], the IC50 came out at 1950 nM.

`CCOC(=O)CCc1ccc(-n2nc(C(C)(C)C)cc2NC(=O)Nc2ccc(Cl)cc2)cc1` [Example 294, ethyl 3-(4-(3-tert-butyl-5-(3-(4-chlorophenyl)ureido)-1H-pyrazol-1-yl)phenyl)propanoate] showed an IC50 of 2100 nM.

Molecule `CC(C)(C)c1cc(NC(=O)c2ccc3ccccc3c2)n(-c2cccc(CN3CC(=O)NS3(=O)=O)c2)n1` [Example 234] came in with an IC50 of 11000 nM.

`CC(C)(C)c1cc(NC(=O)Nc2ccccc2F)n(-c2cccc(C#N)c2)n1` [Example 354, 1-[3-t-butyl-1-(3-cyanophenyl)-1H-pyrazol-5-yl]-3-(2-fluorophenyl)urea] yielded a 50% inhibitory concentration (IC50) of 110 nM.

As to `CN1CCN(CCCOc2cccc(-n3nc(C(C)(C)C)cc3NC(=O)Nc3cccc4ccccc34)c2)CC1` [Example 163, 1-(5-t-Butyl-2-{3-{3-(4-methyl-piperazin-1-yl)-propoxy]-phenyl}-2H-pyrazol-3-yl)-3-naphthalen-1-yl-urea], the midpoint of inhibition, the IC50, lay at 464 nM.

For the molecule `CCOC(=O)C(C)Cc1cccc(-n2nc(C(C)(C)C)cc2NC(=O)Nc2ccc(Cl)cc2)c1` (racemic) [Example 202, 3-(3-{3-t-butyl-5-[3-(4-chloro-phenyl)-ureido]-pyrazol-1-yl}-phenyl)-2-methyl-propionic acid ethyl ester], the half-inhibitory concentration (IC50) came out at 1900 nM.

`CC(C)(C)c1cc(NC(=O)Nc2c(Cl)cccc2Cl)n(-c2cccc(CCC(=O)O)c2)n1` [Example 291, 3-(3-(3-t-butyl-5-(3-(2,6-dichlorophenyl)ureido)-1H-pyrazol-1-yl)phenyl)propanoic acid]: 5100 nM corresponded to half-maximal inhibition (IC50).

In the case of `CC(C)(C)c1cc(NC(=O)Nc2cccc3ccccc23)n(-c2ccc(C(C)(C)O)cc2)n1` [Example 198, 1-{5-t-butyl-2-[4-(1-hydroxy-1-methyl-ethyl)-phenyl]-2H-pyrazol-3-yl}-3-naphthalen-1-yl-urea], the IC50 is 137 nM.

For `CC(C)(C)c1cc(NC(=O)Nc2ccc(Cl)cc2)n(-c2cccc(CN3CC(=O)NS3(=O)=O)c2)n1` [Example 288, 1-(5-t-butyl-2-{3-[5-1,1,4-trioxo-1λ^6-[1,2,5]thiadiazolidin-2-ylmethyl]-phenyl}-2H-pyrazol-3-yl)-3-(4-chloro-phenyl)-urea], half-maximal inhibition (IC50) required 104 nM.

On to `CCOC(=O)CCc1cccc(-n2nc(C(C)(C)C)cc2NC(=O)Nc2cccc3ccccc23)c1` [Example 297, ethyl 3-(3-(3-tert-butyl-5-(3-(naphthalen-1-yl)ureido)-1H-pyrazol-1-yl)phenyl)propanoate], for which the IC50 came out at 340 nM.

Turning to `CC(C)(C)c1cc(NC(=O)Nc2ccc(Cl)cc2)n(-c2ccc(C(C)(C)O)cc2)n1` [Example 199, 1-{5-t-butyl-2-[4-(1-hydroxy-1-methyl-ethyl)-phenyl]-2H-pyrazol-3-yl}-3-(4-chloro-phenyl)-urea], the IC50 was 684 nM.

With `CC(C)(C)c1cc(NC(=O)Nc2cccc3ccccc23)n(-c2cccc(CN3CC(=O)NS3(=O)=O)c2)n1` [Example 287, 1-(5-t-butyl-2-{3-[5-1,1,4-trioxo-1λ^6-[1,2,5]thiadia-zolidin-2-ylmethyl]-phenyl}-2H-pyrazol-3-yl)-1-naphthylurea], the IC50 came to 41 nM.

In turn, `CC(Cc1cccc(-n2nc(C(C)(C)C)cc2NC(=O)Nc2cccc3ccccc23)c1)C(=O)O` (racemic) [Example 201, 3-{3-[3-t-butyl-5-(3-naphthalen-1-yl-ureido)-pyrazol-1-yl]-phenyl}-2-methyl-propionic acid] showed an IC50 of 29 nM.

As for `COc1ccc(NC(=O)Nc2cc(C(C)(C)C)nn2-c2cccc(CN3CC(=O)NS3(=O)=O)c2)c2ccccc12` [Example 298, 1-(5-t-butyl-2-{3-[5-1,1,4-trioxo-1λ^6-[1,2,5]thiadiazolidin-2-ylmethyl]-phenyl}-2H-pyrazol-3-yl)-1-(4-methoxynaphthyl)urea], the IC50 was 25 nM. This IC50 and that of the molecule before are within 1.5-fold of each other.

Turning to `CC(C)(C)c1cc(NC(=O)Nc2ccc(Cl)cc2)n(-c2cccc(Cn3c(=O)sn(-c4ccccc4)c3=O)c2)n1` [Example 289, 1-(3-t-butyl-1-(3-((3,5-dioxo-2-phenyl-1,2,4-thiadiazolidin-4-yl)methyl)phenyl)-1H-pyrazol-5-yl)-3-(4-chlorophenyl)urea], the IC50 worked out at 1300 nM.

In turn, `CC(C)(C)c1cc(NC(=O)Nc2cccc3ccccc23)n(-c2ccc(C(O)C(F)(F)F)cc2)n1` (centres unmarked) [Example 206, 1-{5-t-Butyl-2-[4-(2,2,2-trifluoro-1-hydroxy-ethyl)-phenyl]-2H-pyrazol-3-yl}-3-naphthalen-1-yl-urea] gave a half-maximal inhibitory concentration (IC50) of 13 nM.

In turn, `CC(C)(C)c1cc(NC(=O)Nc2ccc(Cl)cc2)n(-c2ccc(C(O)C(F)(F)F)cc2)n1` (centres unmarked) [Example 209, 1-{5-t-butyl-2-[4-(2,2,2-trifluoro-1-hydroxy-ethyl)-phenyl]-2H-pyrazol-3-yl}-3-(4-chloro-phenyl)-urea] came in with an IC50 of 354 nM.

Turning to `CC(C)(C)c1cc(NC(=O)Nc2cccc3ccccc23)n(-c2cccc(CCN3CCOCC3)c2)n1` [Example 300], it took 251 nM to reach half-maximal inhibition (IC50).

Consider `CCOC(=O)CCc1cccc(-n2nc(C(C)(C)C)cc2NC(=O)Nc2ccc(F)cc2)c1` [Example 145, 3-(3-{3-t-butyl-5-[3-(4-fluoro-phenyl)-ureido]-pyrazol-1-yl}-phenyl)-propionic acid ethyl ester], for which the IC50 was 1300 nM.

On to `CCOC(=O)CCc1cccc(-n2nc(C(C)(C)C)cc2NC(=O)Nc2ccc(Cl)cc2)c1` [Example 295, ethyl 3-(3-(3-tert-butyl-5-(3-(4-chlorophenyl)ureido)-1H-pyrazol-1-yl)phenyl)propanoate], for which the IC50 came to 1200 nM. This IC50 and that of the molecule before are within 1.5-fold of each other.

These data come from patent US20070191336A1 (priority 2003, published 2007).
